Sampled rows, rich in hits. Any-hit rate of the full collection: about 0.78%.
RXFP1 antag: antagonists of human relaxin receptor RXFP1 | activity change, negative = inhibition, % at 57.5 µM | hit rate 0.59% among 350,000 | Q9HBX9 | AID 1259400 | HEK293-RXFP1, relaxin-stimulated cAMP HTRF, 30 min; active compounds read low;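 active means activity change of -60% or lower, but not beyond a set lower limit; inconclusive means change between -60% and -40%, or beyond the set limit; inactive means change above -40%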; further: on the % scale 0 is the no-effect control and ±100 the full control effect
IL-2 act: IL-2 activation; activation, % (series mostly up to about 46 µM); AID 652025; IL-2 activation reporter assay, cell-based qHTS; stimulated with anti-CD3/CD4/CD28 beads; in transgenic mouse T cells; hit rate 0.065% among 360,000; in the data active means activation above about 50%; inconclusive means mostly about 30% to 49%; further: 0% is about no effect
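Screening format: compound pinned onto unstimulated transgenic mouse T cells, 60 min incubation, then anti-CD3/anti-CD4/anti-CD28 bead stimulation for 18 hours at 37 degrees C, followed by EGFP and DsRed detection.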
RXFP1 ag: RXFP1 (human) receptor agonism | Potency, µM (series often up to 57.5 µM), inactives show at the top dose activation, usual class: activators | HEK293T-RXFP1 cAMP TR-FRET, 30 min; response scale: percent of porcine relaxin response, buffer zero | hit rate 0.3% among 370,000 | AID 2676; further: potency means the concentration at half of the fitted maximal effect; on the % scale 0 is the no-effect control and ±100 the full control effect; nearly all actives have a fitted effect of over 60% in size
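Agonist response is measured as cAMP accumulation in an RXFP1-transfected HEK293T line under PDE4 inhibition. Values are scaled between buffer-only and 29 nM porcine relaxin, and EC50s come from standard Hill equation fits.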
TCR activator: activates T cell receptor signaling | 330,000 tested, under 10 active | Potency, µM (highest dose often 9.22 µM), for inactives: top-dose activation of IL-2 secretion, actives largely listed as activators | AID 504894 | primary human leukocytes, anti-CD3, IL-2 HTRF, 48 h; further: % of control where 0% means no effect
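Readout: HTRF IL-2, Eu-cryptate/d2 antibody pair, 320nm excitation, 665nm emission. Stimulus: a-CD3 beads, no co-stimulation. Cells: primary human leukocytes. Exposure: 48 hr with compound.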
PINK1 expr mod: changes PINK1 expression | PINK1 immunofluorescence, high-content cytometry, 24 h | Potency, µM (top dose mostly 76.6 µM), without a hit: at the top dose activation (PINK1 increase), hits mostly activators | hit rate 0.2% among 410,000; active means well fitted activation curve with a large enough effect; inconclusive means small, poorly fitted or top-dose-only effect; cell line not stated here; further: potency means the concentration at half of the fitted maximal effect; % of control where 0% means no effect; nearly all actives have a fitted effect of over 65% in size
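Readout is PINK1 immunofluorescence, quantified alongside mitochondrial, cell and nuclear markers by laser-scanning microplate cytometry. Cells from a stable line were exposed to compound titrations (5 concentrations) for 24 hours, with CCCP controls.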
miR-21 FLuc: miR-21 reporter, rising signal; Potency, µM (doses to about 38.3 µM), without a hit: at the top dose reporter change, positive = more light; HeLa miR-21 FLuc reporter, luciferase, 48 h; 340,000 tested, under 10 active; active = well fitted rising curve with a large enough effect; inconclusive = small, poorly fitted or top-dose-only effect; inactive = no such curve, though single readings can be large or run the other way;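 further: % of control where 0% means no effect; miR-21 action dims this reporter so a rising signal means less miR-21 action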
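Using DMEM plus 10% FBS, HeLa miR-21-FLuc cells are incubated with test compounds (final up to about 40uM) for 48 hours; firefly luciferase signal is then imaged following reagent-mediated lysis.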
Active calls of the source: *; u = inconclusive; x = not tested or not shown; [ ] = remark or other dose. Unless noted, the call rests on the fitted dose curve; in most records, active means well fitted curve in the direction sought with a large enough effect; inconclusive means small, poorly fitted or top-dose-only effect, or another doubt; inactive means no such curve, though single readings can be large; an effect the other way counts as inactive or inconclusive.

cpd	RXFP1 antag	IL-2 act	RXFP1 ag	TCR activator	PINK1 expr mod	miR-21 FLuc	Molecule
1	-64*	-3	0%	-5%[46.1 µM]	18%	u	Cc1ccc(S(=O)(=O)Nc2ccccc2/C=N/c2nc3ccccc3n2C(C)C)cc1
2	-72*	0	-1%	0%	2%	-7%	O=C(CS(=O)(=O)c1ccccc1)c1cc2cc(F)ccc2oc1=O
3	x	x	x	x	-1%	x	Cn1c(SCC2CCCO2)nnc1C1CCN(Cc2ccccc2O)CC1 (stereo not given)
4	-37	2	1%	0%	-4%	u	COc1ccc(C(CCNCc2ccc(N(C)C)cc2)c2ccccc2)cc1 (stereo not given)
5	-90*	-1	0%	5%	-2%	u	COc1ccc(C(C)NCCC(c2ccc(OC(C)C)cc2)c2ccccc2OC)cc1 (stereo not given)
6	-72*	x	0%	x	u	14%	COc1ccc(CNCCC(c2ccc3c(c2)OCO3)c2ccccc2OC)cc1 (stereo not given)
7	u	-2	-1%	2%	u	13%	COc1ccc(C(CCNC(C)c2ccccc2)C(C)C)cc1 (stereo not given)
8	x	x	x	x	1%	x	COc1cc(CN2CCCC(n3cc(C(=O)N4CCCCC4)nn3)C2)cc(OC)c1OC (stereo not given)
9	x	x	x	x	0%	x	COc1ccc2c(c1)CCc1cnc(-n3ncc(C(=O)NCc4cc(C)no4)c3C3CC3)nc1-2
10	x	x	x	x	0%	x	COc1cc(OC)c(CN2CCOc3ccc(CN4CCC(O)CC4)cc3C2)c(OC)c1
11	2	0	0%	7%	28µM*	20%	O=C(N/N=C/c1cnc(N2CCCCC2)s1)c1ccc(Cl)cc1
12	3	0	2%	0%	-2%	-11%	O=Cc1cnc(N2CCCCC2)s1
13	x	x	x	x	0%	x	COc1cc(=O)n2c(c1C(=O)N(C)Cc1nonc1C)CCN(C(=O)c1cc(C)ccc1C)CC2
14	x	x	x	x	0%	x	O=C([C@@H]1C[C@@H](Sc2nc3ccccc3[nH]2)CN1Cc1c(F)cccc1F)N1CCOCC1
15	0	-1	0%	x	13µM*	-18%	CCCSc1nsc(NC(=O)Nc2ccc(F)cc2F)n1
16	-19	-1	0%	-1%	u	21%	CCSc1nsc(NC(=O)Nc2cccc(F)c2)n1
17	-80*	-3	1%	-2%	-1%	23%	Cc1ccc(C(C)C)c(OCC(O)CN2CCc3ccccc3C2)c1 (stereo not given)
18	-23	x	0%	x	7%	1%	Cc1ccc(C(C)C)c(OCC(O)CN2CCN(c3ccccc3F)CC2)c1 (stereo not given)
19	-70*	-1	2%	0%	8%	26%	Cc1ccc(C)c(OCC(O)CN2CCC(Cc3ccccc3)CC2)c1 (stereo not given)
20	x	x	x	x	0%	x	COc1ccc(-n2c(CNC(=O)c3ccccc3C(F)(F)F)nnc2SC)cc1
21	-5	0	0%	1%	-1%	0%	CC(=O)c1ccc(Nc2c([N+](=O)[O-])ccc3nonc23)cc1
22	-10	8	0%	2%	14µM*	0%	COC(=O)c1ccc(Nc2c([N+](=O)[O-])ccc3nonc23)cc1
23	-32	x	x	x	x	x	CC(C)Cc1ccc(C(C)C(=O)OCc2ccccn2)cc1 (stereo not given)
24	-25	x	-1%	x	-1%	-12%	CCCOc1ccc(Cn2c(=O)sc3ccccc32)cc1
25	-62*	x	0%	x	2%	-14%	CCCOc1ccccc1Cn1c(=O)sc2ccccc21

Reprinted at random: two records from the list, in no set order.
cpd	RXFP1 antag	IL-2 act	RXFP1 ag	TCR activator	PINK1 expr mod	miR-21 FLuc	Molecule
8	x	x	x	x	1%	x	COc1cc(CN2CCCC(n3cc(C(=O)N4CCCCC4)nn3)C2)cc(OC)c1OC (stereo not given)
21	-5	0	0%	1%	-1%	0%	CC(=O)c1ccc(Nc2c([N+](=O)[O-])ccc3nonc23)cc1

Single records, as listed above:
CCSc1nsc(NC(=O)Nc2cccc(F)c2)n1 across the screens: RXFP1 antag = -19; IL-2 act = -1; RXFP1 ag = 0%; TCR activator = -1%; PINK1 expr mod = u; miR-21 FLuc = 21%
Cc1ccc(C(C)C)c(OCC(O)CN2CCN(c3ccccc3F)CC2)c1 (stereo not given) across the screens: RXFP1 antag = -23; IL-2 act = x; RXFP1 ag = 0%; TCR activator = x; PINK1 expr mod = 7%; miR-21 FLuc = 1%

Other structures
cpd	RXFP1 antag	IL-2 act	RXFP1 ag	TCR activator	PINK1 expr mod	miR-21 FLuc	Molecule
26	-9	-1	0%	-23%	28µM*	0%	CCc1ccc(Nc2cc(=O)n(C3CCCCC3)c(=O)[nH]2)cc1
27	x	x	x	x	2%	x	c1ccc2c(N3CCCCCC3)nc(CN3CCCCC3c3nccs3)nc2c1 (stereo not given)
28	7	x	x	x	x	x	Nc1ccc(C(=O)N2CC3CC(CN(Cc4ccccc4)C3)C2)cc1
29	-81*	x	3%	x	0%	u	Cc1ccc(Cl)cc1-n1ncc2c(N3CCN(Cc4ccccc4)CC3)ncnc21

Source: PubChem BioAssay
